One assay has as its system A375 cells. The assay can be described thus: Cell viability experiment (Cell Titer-Glo), A375. The following applies: read-out: A375 IC50, 3 days incubation. The procedure: (§1) Biological Test Method 2: Cell Viability Experiment
(§2) HT29 and A375 cells were plated in a 96-well cell culture plate at a density of 40,000 cells/well and 20,000 cells/well respectively, and the cells were cultured overnight. The compounds were serially diluted in a gradient of 1:3, the dilutions were added to the cell culture medium, and incubated with the cells in a 37° C. incubator for 3 days. The 96-well cell culture plate was taken from the incubator and equilibrated at room temperature for 30 minutes, then Cell Titer-Glo reagent (Promega Cat #G7573) was added at a ratio of 1:2, and the mixture was mixed thoroughly on a shaker for 2 minutes to promote cell lysis. The cell culture plate was incubated at room temperature for 10 minutes and then read on an Envision microplate reader (PerkinElmer). XLfit5 software was used for data analysis and mapping.
Background: In ATP-based viability assays light output follows the ATP content of the culture.

The chains behind the UniProt entries cited, without tags or fusion partners.
UniProt Q02750, whole entry: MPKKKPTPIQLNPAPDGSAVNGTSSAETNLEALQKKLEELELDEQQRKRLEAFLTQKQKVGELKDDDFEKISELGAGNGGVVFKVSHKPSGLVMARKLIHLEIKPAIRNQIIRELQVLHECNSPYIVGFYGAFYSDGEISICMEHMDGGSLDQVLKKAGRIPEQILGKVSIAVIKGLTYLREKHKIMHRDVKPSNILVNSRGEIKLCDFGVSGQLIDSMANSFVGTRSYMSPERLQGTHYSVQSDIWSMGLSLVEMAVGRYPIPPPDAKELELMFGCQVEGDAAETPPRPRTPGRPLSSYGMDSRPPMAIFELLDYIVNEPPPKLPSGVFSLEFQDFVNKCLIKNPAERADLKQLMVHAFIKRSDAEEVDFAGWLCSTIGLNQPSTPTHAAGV

The target of another assay is activated MEK1 (Homo sapiens, UniProt Q02750). Put plainly: MEK Lance Ultra experiment. The following applies: read-out: MEK potency IC50; 0.07 nM activated MEK1, 2 nM non-activated ERK, 50 μM ATP. The assay is classed as biochemical. The procedure:
Biological Test Method 1: MEK Lance Ultra Experiment Compounds were serially diluted three-fold to 10 concentrations, two duplicates were set. Final test concentrations of the compounds ranged from 10 μM to 0.51 nM. 0.07 nM activated MEK1 (Millipore #14-429) and 2 nM non-activated ERK (Millipore #14-515) were mixed with the compounds or DMSO, the mixture was incubated at 23° C. for 30 minutes. Then 50 nM ULight labeled MBP (PerkinElmer #TRF0109-M) and 50 μM ATP (Invitrogen #PV3227) were added to initiate the reaction, and the mixture was incubated at 23° C. for 90 minutes. After the reaction was stopped by adding EDTA at a final concentration of 15 mM, 2 nM Eu-labeled anti-phosphorylated antibody (PerkinElmer #TRF0201-M) was added and incubated for 1 hour. The fluorescence signal data (excitation band: 320 nm; emission band: 665 nM/615 nM) was determined by an Envision microplate reader (PerkinElmer). XLfit5 software was used for data analysis and mapping.

The next assay deals with HT29 cells. Put plainly: Cell viability experiment (Cell Titer-Glo), HT29. The following applies: read-out: HT29 IC50, 3 days incubation. The protocol: as §1, §2

With `COCC(=O)Nc1cccc(-c2c(C)n(C3CC3)c(=O)c3c(Nc4ccc(I)cc4F)c(C)c(=O)oc23)c1`, the IC50 – broadly, the concentration that inhibits the measured activity by half – in the assay on A375 cells was found to be 3.2 nM; at activated MEK1 it was 70.5 nM; in the assay on HT29 cells, 11.2 nM.

(Values after US11021486B2, “Coumarin-like cyclic compound as MEK inhibitor and use thereof” (CSTONE PHARMACEUTICALS, priority 2017, dated 2021).)
